From patent US12065445B2, “CDK2 inhibitors and methods of using the same” (Cedilla Therapeutics, Inc., priority 2021, dated 2024)

How the values were obtained:
CDK2/Cyclin E1 = CDK2/Cyclin E1 (Homo sapiens, UniProt P24941); experiment: CDK2/Cyclin E1 Caliper Assay (LabChip EZ Reader mobility shift); conditions: read-out: Caliper Assay (CDK2/CCNE1): IC50
Method: Inhibition of CDK2/Cyclin E1 activity in the presence of compounds of the present disclosure was evaluated using a Caliper LabChip® EZ Reader mobility shift assay. In the assay, CDK2/Cyclin E1 (Eurofins, 14-475) catalyzed the phosphorylation of a fluorescently tagged peptide 5-FAM-QSPKKG-CONH2 (PerkinElmer, FL Peptide 18) which induced a difference in capillary electrophoresis mobility. The peptide substrate and product were measured, and the conversion ratio was used to determine the inhibition (as % activity and IC50 values) of CDK2/Cyclin E1. Reactions contained 50 mM HEPES pH 7.5, 10 mM MgCl2, 1 mM EDTA, 2 mM DTT, 0.01% Brij35, 0.5 mg/mL BSA, 0.1% DMSO, 2.5 nM CDK2/Cyclin E1, 100 μM ATP, and 1.5 μM fluorescent peptide substrate.
Dose titrations of inhibitors in 100% DMSO were combined with 3.25 nM CDK2/Cyclin E1 and 130 μM of ATP in reaction buffer. The mixtures were incubated for 30 minutes before the addition of fluorescent peptide substrate to initiate the kinase reaction. The final conditions were 2.5 nM CDK2/Cyclin E1, 100 μM ATP, and 1.5 μM fluorescent peptide. The reactions were stopped after 100 minutes with the addition of EDTA (400 mM final EDTA concentration). The stopped reactions were analyzed on a Caliper LabChip® EZ Reader II. The conversion ratios were normalized to yield % activity, plotted against compound concentration, and fit to a four-parameter equation to determine the IC50 for each compound.

Kuramochi cells = experiment: BrdU Cell Proliferation Assay; conditions: read-out: BrdU - KURAMOCHI.1: IC50
Method: A BrdU assay was used as a measure of proliferation based on the DNA replication process of proliferating cells. BrdU, a pyrimidine analog, is added to the cell culture and incorporated into the DNA of proliferating cells. The presence of the BrdU analog was then measured through a colorimetric ELISA. After fixation and permeabilization of cells, peroxidase-conjugated antibody recognizing BrdU is added and allowed to incubate, followed by thorough washing to remove unbound antibody. In order to quantify the amount of bound antibody, peroxidase substrate is added and produces a color that can be measured at 450 nm.
On day −1, Kuramochi cells (Sekisui XenoTech JCRB0098) were seeded at 2,000 cells/well in columns 2-12 of a 96 well plate (Corning, CLS3596) in 150 μL media and allowed to adhere overnight at 37 degree with 5% CO2.
On day 0, the source plate was prepared by adding 10 mM compounds and performing 3-fold serial dilutions for a 10-point dose response of each compound. Using a multichannel pipette, 2 μL of the contents of the source plate were stamped into an intermediate plate with 500 μL of RPMI 1640 Media, GlutaMAX Supplement (Life Technologies, 61870127) in each well of a Nunc 96 DeepWell™ plate, non-treated 96 DeepWell plate, 2 mL/well, sterile, natural, 60/cs (Sigma Z717274) and mixed thoroughly. 50 μL from each well of this intermediate plate were added to 4 wells of a 96-well plate with previously seeded Kuramochi cells.
On day 4, the plates were developed using the BrdU ELISA Cell Proliferation Assay according to manufacturer's instructions (Roche, 11647229001). Briefly, BrdU was diluted 1:100 in Gibco®, OptiMEM® and 20 μL/well was added, shaken for 10 minutes at 350 rpm, and then returned to the incubator for 1 hour. Following incubation, the medium was discarded, and the cells were fixed by adding 200 μL of Fix/Denature solution. The anti-BrdU peroxidase antibody was diluted 1:1000 in OptiMEM, added at 100 μL/well, and incubated while shaking (350 rpm) for one hour. Three washes with PBS were performed to remove any unbound antibody, followed by the addition of 100 μL of substrate solution to each well. 25 μL/well of 1M sulfuric acid solution was then added to halt the reaction, and plates were read out using an Envision spectrophotometer (Perkin Elmer) set to read 450 nm absorbance. Background absorbance values from empty wells were subtracted from all samples and then normalized to DMSO treated wells.

[1] = system: Kuramochi cells labeled with mApple-H2B; experiment: IncuCyte Cell Proliferation Assay; conditions: read-out: IncuCyte Assay: IC50, 72 hours
Method: IncuCyte® assay was used to measure the effect of disclosed compounds on cell proliferation. Fluorescent microscopy images of cells were taken immediately after compound treatment and 72 hours later. Image analysis software was used to obtain cell counts as a function of compound concentration. Kuramochi cells labeled with mApple-H2B were seeded on 384-well assay-ready plates. Plates were placed in an IncuCyte® (Sartorius) and scanned at 0 and 72 hours. IncuCyte® software was used to count the number of fluorescent nuclei in each well. The fold change in cell count from 0 to 72 hours in wells treated with increasing compounds concentrations (10 pts, ½ log dilution, 20 μM top concentration) was normalized to DMSO control wells. The normalized cell counts were fit with dose response curves and a […] was calculated.

Row | Structure (SMILES) | IC50 (CDK2/Cyclin E1) [µM] | IC50 (Kuramochi cells) [µM] | IC50 [1] [µM]
1 | CNC(=O)[C@@H](NC(=O)[C@H]1CN(C(=O)c2cnn(C)c2)CC12CN(C(=O)CC1CC1)C2)[C@@H](C)OCc1ccccc1 | > 10 | > 10 | –
2 | CNC(=O)[C@@H](NC(=O)[C@@H]1CN(C(=O)c2cnn(C)c2)CC12CN(C(=O)CC1CC1)C2)[C@@H](C)OCc1ccccc1 | > 10 | > 10 | –
3 | C[C@@H](OCc1ccccc1)[C@H](NC(=O)C1CN(C(=O)c2cnn(Cc3ccccc3)c2)CC12CN(C(=O)[C@H]1CC1(C)C)C2)C(=O)N1CC(C)(C)C1 (stereo partly drawn) | 0.01 to 0.1 | 0.5 to 5 | 5 to 20
4 | CNC(=O)[C@@H](NC(=O)[C@H]1CN(C(=O)c2cnn(Cc3ccccc3)c2)CC12CN(C(=O)CC1CCCCC1)C2)[C@@H](C)OCc1ccccc1 | > 10 | > 10 | –

The next lines start with results.

Row | IC50 (CDK2/Cyclin E1) [µM] | Structure (SMILES) | IC50 (Kuramochi cells) [µM] | IC50 [1] [µM]
5 | > 10 | CNC(=O)[C@@H](NC(=O)[C@H]1CN(C(=O)c2cnn(Cc3ccccc3)c2)CC12CN(C(=O)Cc1ccc(OC(C)C)cc1)C2)[C@@H](C)OCc1ccccc1 | > 10 | –
6 | > 10 | CNC(=O)[C@@H](NC(=O)[C@@H]1CN(C(=O)c2cnn(Cc3ccccc3)c2)CC12CN(C(=O)Cc1ccc(OC(C)C)cc1)C2)[C@@H](C)OCc1ccccc1 | > 10 | –
7 | > 10 | CNC(=O)[C@@H](NC(=O)[C@@H]1CN(C(=O)c2cnn(Cc3ccccc3)c2)CC12CN(C(=O)CC1CCCCC1)C2)[C@@H](C)OCc1ccccc1 | > 10 | –
